{"source": "paper PMC5062937", "about": "“Aadh2p: an Arxula adeninivorans alcohol dehydrogenase involved in the first step of the 1-butanol degradation pathway” (Microbial Cell Factories, 2016)", "test_system": "CCO", "test": "purified protein", "conditions": "oxidation, 1 mM NAD+, 50 mM Tris-HCl pH 9.0, 30 °C"}
{"substance": "6h-Aadh2p (Blastobotrys adeninivorans)", "values": [{"measurement": "Km", "value": 14.2, "unit": "mM"}, {"measurement": "kcat", "value": 1420, "unit": "s⁻¹"}, {"measurement": "kcat/Km", "value": 99900, "unit": "M⁻¹ s⁻¹"}]}
